According to paper PMC3466118 (Journal of medicinal chemistry, 2011):

Legend:
[1] = system: cleavage of caspase 3 in HepG2 cells; assay: Western blot, activation/cleavage of caspase 3 in HepG2 cells; format: cell-based, human
[2] = system: acetylation of p53 in HepG2 cells; assay: Western blot, acetylation of p53 in HepG2 cells; format: cell-based, human; conditions: HepG2 total cell extracts
HepG2 cells = conditions: 10 μM; cited from earlier work

## O=C(CCCCCCC(=O)Nc1ccccc1)NO [SAHA, suberoylanilide hydroxamic acid, reference compound]
[1]
  Cleavage of caspase 3: induced cleavage of caspase 3 by 14 h with maximum activation at 24 h
[2]
  Acetylation of p53: neither SAHA nor 2b induced additional time and dose-dependent hyperacetylation of p53
HepG2 cells
  Lag-phase before apoptotic effect: 12 to 16 h
  Time of maximum apoptotic effect: about 36 h
